Laboratory results as given in patent US7674594B2, “Screening assay for inhibitors of TRPA1 activation by a lower alkyl phenol” (Redpoint Bio Corporation, priority 2006, dated 2010).

Sequences of proteins named here, by UniProt entry; tags and fusion partners are left off. A change or cut given only in a name is not applied to a line headed by its entry.
UniProt Q8TD43: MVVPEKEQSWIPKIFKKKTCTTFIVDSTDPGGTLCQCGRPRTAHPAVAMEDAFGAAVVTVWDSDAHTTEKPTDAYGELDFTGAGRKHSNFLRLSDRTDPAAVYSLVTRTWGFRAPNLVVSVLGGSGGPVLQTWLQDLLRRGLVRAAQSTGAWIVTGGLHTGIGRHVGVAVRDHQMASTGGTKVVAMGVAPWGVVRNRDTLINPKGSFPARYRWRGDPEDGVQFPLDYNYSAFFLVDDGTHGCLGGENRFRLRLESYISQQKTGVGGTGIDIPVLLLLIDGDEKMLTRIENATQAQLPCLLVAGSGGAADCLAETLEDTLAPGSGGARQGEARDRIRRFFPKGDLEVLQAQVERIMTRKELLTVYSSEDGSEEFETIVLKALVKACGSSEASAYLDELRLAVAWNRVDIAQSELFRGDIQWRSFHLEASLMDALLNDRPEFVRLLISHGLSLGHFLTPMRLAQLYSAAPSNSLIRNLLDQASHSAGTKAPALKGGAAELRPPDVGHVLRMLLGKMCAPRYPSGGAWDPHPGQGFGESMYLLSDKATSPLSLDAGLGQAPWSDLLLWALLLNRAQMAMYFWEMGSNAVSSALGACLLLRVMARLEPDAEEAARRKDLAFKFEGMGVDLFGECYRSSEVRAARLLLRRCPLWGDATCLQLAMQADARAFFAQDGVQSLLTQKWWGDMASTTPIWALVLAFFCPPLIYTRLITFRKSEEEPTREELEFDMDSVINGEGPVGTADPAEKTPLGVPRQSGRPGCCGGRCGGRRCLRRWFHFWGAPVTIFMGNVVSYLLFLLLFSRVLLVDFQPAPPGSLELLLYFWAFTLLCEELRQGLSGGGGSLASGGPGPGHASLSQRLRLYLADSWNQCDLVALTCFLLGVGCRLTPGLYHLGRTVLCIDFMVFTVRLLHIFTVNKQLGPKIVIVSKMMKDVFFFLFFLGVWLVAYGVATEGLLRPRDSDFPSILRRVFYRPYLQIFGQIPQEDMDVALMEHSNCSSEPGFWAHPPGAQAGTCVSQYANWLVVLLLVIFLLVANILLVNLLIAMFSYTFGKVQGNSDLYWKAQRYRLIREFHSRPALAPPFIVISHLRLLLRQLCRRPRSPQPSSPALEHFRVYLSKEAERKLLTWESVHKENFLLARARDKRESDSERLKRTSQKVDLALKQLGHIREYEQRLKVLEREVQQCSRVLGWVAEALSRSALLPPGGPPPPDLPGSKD
UniProt O75762, whole entry: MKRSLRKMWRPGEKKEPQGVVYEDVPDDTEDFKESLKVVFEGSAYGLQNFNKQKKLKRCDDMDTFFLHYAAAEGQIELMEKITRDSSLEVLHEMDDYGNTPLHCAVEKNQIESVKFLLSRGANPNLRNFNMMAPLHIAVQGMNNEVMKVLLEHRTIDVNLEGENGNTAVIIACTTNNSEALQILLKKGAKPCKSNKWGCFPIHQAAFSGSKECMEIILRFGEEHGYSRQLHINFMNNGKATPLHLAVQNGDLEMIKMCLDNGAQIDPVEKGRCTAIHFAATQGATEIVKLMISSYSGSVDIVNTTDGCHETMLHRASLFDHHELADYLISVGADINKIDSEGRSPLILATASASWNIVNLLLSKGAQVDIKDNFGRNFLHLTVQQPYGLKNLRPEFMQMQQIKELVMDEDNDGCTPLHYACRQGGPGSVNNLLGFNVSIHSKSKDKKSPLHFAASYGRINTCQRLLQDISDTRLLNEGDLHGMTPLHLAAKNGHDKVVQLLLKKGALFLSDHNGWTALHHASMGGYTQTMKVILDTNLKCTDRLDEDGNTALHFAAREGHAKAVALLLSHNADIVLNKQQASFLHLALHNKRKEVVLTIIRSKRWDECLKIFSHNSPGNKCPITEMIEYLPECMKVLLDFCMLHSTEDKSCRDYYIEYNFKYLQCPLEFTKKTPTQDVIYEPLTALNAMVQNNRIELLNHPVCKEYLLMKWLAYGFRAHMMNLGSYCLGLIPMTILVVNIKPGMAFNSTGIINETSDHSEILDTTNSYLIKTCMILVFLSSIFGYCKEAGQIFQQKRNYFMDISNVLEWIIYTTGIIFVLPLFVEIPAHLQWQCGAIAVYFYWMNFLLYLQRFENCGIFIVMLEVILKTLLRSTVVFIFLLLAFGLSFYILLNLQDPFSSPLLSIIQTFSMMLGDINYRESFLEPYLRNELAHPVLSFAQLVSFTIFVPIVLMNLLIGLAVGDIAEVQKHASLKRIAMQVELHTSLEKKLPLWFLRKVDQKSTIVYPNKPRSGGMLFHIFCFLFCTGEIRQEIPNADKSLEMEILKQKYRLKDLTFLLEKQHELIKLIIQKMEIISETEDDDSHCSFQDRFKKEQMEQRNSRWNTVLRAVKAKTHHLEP
UniProt Q8NER1, whole entry: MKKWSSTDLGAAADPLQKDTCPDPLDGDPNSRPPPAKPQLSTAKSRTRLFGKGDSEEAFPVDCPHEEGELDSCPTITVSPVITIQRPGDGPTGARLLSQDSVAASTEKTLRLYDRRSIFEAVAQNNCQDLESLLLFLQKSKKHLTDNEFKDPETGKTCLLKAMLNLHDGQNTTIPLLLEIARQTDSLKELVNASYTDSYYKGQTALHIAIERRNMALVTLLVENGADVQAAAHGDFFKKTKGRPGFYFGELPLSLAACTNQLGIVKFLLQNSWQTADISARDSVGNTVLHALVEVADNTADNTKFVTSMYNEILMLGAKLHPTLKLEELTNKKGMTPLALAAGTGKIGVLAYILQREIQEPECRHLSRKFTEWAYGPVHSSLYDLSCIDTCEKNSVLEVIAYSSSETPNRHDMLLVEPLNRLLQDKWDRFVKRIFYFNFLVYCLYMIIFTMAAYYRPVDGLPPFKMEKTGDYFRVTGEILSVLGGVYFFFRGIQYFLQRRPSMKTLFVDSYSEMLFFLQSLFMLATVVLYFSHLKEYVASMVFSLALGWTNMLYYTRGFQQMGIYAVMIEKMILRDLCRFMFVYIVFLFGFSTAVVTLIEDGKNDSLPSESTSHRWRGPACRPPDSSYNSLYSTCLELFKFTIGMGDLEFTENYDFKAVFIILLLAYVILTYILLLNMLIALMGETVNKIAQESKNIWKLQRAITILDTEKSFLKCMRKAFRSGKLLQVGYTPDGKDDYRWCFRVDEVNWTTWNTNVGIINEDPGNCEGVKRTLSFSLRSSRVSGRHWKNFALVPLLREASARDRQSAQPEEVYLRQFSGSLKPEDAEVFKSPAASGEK

Tests used:
Type in all cases: cell-based
hTRPM4B = target: T1, hTRPM4B (Homo sapiens, UniProt Q8TD43); test: Membrane potential dye fluorescence assay, CHO cells expressing hTRPM4B
T1 construct: expressed in transfected cells
Experimental: (§1) Samples in a 384-well plate were evaluated in a 5 minute assay on the FLIPR-Tetra™ (Molecular Devices). The assay was performed on a FLIPR™ using the excitation 510-545 nm and emission 565-625 nm filter sets. TRPA1-Transfected HEK cells, 15,000/well, were seeded overnight on poly-D-lysine coated 384 well plates in 20 μl media. Membrane Potential Assay Dye Red (Molecular Devices), 20 μl/well, was added and the plates incubated for 1 hour in a 37° C. and 5% CO2 incubator. The plates were then removed from the incubator and equilibrated to room temperature for 15 minutes before reading on the FLIPR®. The plates were read on the FLIPR® for a total of 3 minutes. Baseline fluorescence was obtained on the FLIPR® for 10 seconds followed by addition (typically 10 μl) of each agonist by the FLIPR® and read for an additional 2 minutes and 50 seconds.
(§2) HEK293 cells were stably transfected with one of hTRPA1, hTRPV1 or hTRPM5. CHO cells were stably transfected with one of hTRPM4B or TRPM5. Parental HEK293 and CHO cells were also used as a negative control.

hTRPA1 [1] = target: T2, hTRPA1 (Homo sapiens, UniProt O75762); test: Membrane potential dye fluorescence assay (FLIPR/FLEXstation), activation of hTRPA1 in transfected HEK293 cells
T2 construct: The full length hTRPA1 was amplified by PCR with Kpn1 and Xho1 restriction enzyme sites; expressed in transfected cells; also transient transfection
Experimental: Once expression of TRPA1 was confirmed, 100 μl of the Blue or Red FMP dye (Molecular Devices) was added to each well of plates seeded with the transiently transfected cells. The plate was then incubated in a 37° C./5% CO2 incubator for 1 hour. The plate was read in a FLEXStation microplate reader (Molecular Devices) with an excitation of 530 nm and an emission of 565 nm. The fluorescence was monitored for 3 minutes upon exposure of the cells to a TRPA1 activating agent (e.g., cinnamaldehyde).
as §1

hTRPV1 = target: T3, hTRPV1 (Homo sapiens, UniProt Q8NER1); test: Membrane potential dye fluorescence assay, HEK293 cells expressing hTRPV1
T3 construct: expressed in transfected cells
Experimental: as §1, §2

hTRPM5 = target: T4, hTRPM5 (Homo sapiens, UniProt Q9NZQ8); test: Membrane potential dye fluorescence assay, HEK293 or CHO cells expressing hTRPM5
T4 construct: expressed in transfected cells
T4 sequence (Q9NZQ8 1-1165): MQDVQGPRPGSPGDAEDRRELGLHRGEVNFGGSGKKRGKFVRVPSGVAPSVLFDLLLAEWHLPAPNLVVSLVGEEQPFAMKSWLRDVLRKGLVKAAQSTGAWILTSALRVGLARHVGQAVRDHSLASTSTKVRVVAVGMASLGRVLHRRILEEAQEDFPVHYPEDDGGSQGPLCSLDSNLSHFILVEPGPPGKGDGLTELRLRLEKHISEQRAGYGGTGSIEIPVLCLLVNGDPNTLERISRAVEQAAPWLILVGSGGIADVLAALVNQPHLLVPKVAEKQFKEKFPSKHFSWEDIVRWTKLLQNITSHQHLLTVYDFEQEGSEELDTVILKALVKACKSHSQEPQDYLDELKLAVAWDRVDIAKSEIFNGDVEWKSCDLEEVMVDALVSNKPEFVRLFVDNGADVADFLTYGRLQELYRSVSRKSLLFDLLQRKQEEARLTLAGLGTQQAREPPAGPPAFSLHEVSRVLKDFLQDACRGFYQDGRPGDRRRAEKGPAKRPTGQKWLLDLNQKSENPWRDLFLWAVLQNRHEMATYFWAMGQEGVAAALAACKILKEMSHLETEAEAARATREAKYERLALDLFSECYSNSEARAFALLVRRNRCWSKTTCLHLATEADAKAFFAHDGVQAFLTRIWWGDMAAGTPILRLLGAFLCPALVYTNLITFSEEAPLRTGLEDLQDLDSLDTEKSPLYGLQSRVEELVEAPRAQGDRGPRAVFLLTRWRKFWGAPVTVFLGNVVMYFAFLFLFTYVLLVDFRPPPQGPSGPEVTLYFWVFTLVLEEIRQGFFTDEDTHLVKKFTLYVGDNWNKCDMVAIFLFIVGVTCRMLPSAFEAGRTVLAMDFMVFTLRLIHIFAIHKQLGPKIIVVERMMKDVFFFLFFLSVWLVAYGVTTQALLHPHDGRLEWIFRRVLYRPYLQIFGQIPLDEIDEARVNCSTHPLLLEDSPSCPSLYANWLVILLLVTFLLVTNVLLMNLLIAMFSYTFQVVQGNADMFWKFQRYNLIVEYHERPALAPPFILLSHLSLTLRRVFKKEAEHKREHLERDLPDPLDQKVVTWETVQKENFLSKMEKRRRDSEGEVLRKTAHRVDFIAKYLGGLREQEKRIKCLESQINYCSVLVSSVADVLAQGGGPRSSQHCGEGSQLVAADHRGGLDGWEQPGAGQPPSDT
Experimental: as §1, §2

hTRPA1 [2] = target: T2, hTRPA1; test: Modulation of agonist-activated TRPA1 in HEK293 cells expressing hTRPA1 (membrane potential dye); conditions: pretreated with camphor
Experimental: as §1
(§3) Appropriate control experiments are performed and can easily be determined by the skilled artisan.
(§4) HEK293 cells and CHO cells expressing TRPA1 were subjected to the assay described in Example 2.

hTRPA1 [3] = target: T2, hTRPA1; test: Modulation of agonist-activated TRPA1 in CHO cells expressing hTRPA1 (membrane potential dye); conditions: pretreated with camphor
Experimental: as §1, §3, §4

Q: Which “response of cells expressing hTRPM4B (in words)” value (hTRPM4B) does the source give for `Cc1ccc(O)cc1C` [3,4-dimethylphenol] here?
A: Its value is “did not generate the same increase in relative fluorescence”.

Q: And the EC50 (hTRPA1 [1])?
A: The EC50 was 123 ± 27 µM.

Q: What about the “TRPA1 activation / agonist activity (in words)” value (hTRPA1 [1]) of the same compound?
A: Its value is “generated an increase in relative fluorescence”.

Q: And the “response of cells expressing hTRPV1 (in words)” value (hTRPV1)?
A: Its value is “did not generate the same increase in relative fluorescence”.

Q: What about the “response of cells expressing hTRPM5 (in words)” value (hTRPM5) of the same compound?
A: Its value is “did not generate the same increase in relative fluorescence”.

Q: With `CC12CCC(CC1=O)C2(C)C` (stereo not shown) [Camphor] as the compound, how does the IC50 (hTRPA1 [2]) read?
A: Its IC50 is 300 µM.

Q: And the IC50 (hTRPA1 [3])?
A: The IC50 was 150 µM.
